The numbers were not newly measured in publication PMC6943670, “Investigating the Binding Mode of Reversible LSD1 Inhibitors Derived from Stilbene Derivatives by 3D-QSAR, Molecular Docking, and Molecular Dynamics Simulation” (Molecules, 2019), which cites them from elsewhere.

This data set concerns the target LSD1 (Homo sapiens, UniProt O60341). The settings on record: cited from earlier work.

For the compound `NNCCc1ccccc1` [phenelzine], the “inhibitory effect on LSD1” value (MAO inhibitors bonding covalently with FAD) is “no significant inhibitory effect”. Also, the selectivity result (MAO inhibitors) was “poor selectivity”.
